These results are taken from ChEMBL document CHEMBL1129637, “Conformationally defined 6-s-trans-retinoic acid analogs. 3. Structure-activity relationships for nuclear receptor binding, transcriptional activity, and cancer chemopreventive activity” (J Med Chem, 1996).

The chains behind the UniProt entries cited, without tags or fusion partners.
UniProt P11416, whole entry: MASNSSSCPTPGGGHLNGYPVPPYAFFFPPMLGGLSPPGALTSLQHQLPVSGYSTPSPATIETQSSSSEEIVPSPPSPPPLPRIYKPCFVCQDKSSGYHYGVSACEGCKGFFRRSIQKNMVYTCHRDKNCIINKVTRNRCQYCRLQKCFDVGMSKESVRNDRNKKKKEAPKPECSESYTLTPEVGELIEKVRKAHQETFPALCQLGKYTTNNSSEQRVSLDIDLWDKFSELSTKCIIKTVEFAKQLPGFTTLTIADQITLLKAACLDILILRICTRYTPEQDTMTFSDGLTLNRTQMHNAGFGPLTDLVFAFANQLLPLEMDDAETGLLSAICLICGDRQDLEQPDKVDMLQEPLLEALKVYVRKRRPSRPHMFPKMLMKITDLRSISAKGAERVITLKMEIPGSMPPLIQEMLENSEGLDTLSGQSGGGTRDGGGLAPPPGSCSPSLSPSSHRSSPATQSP

For the experiment, the target named is Retinoic acid receptor alpha (Mus musculus, UniProt P11416). The experiment can be described thus: Inhibition of [3H]ATRA binding to mouse Retinoic acid receptor RAR alpha. In short, it runs like this: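 Radioligand competition assay for RARα, measuring inhibition of [3H]-(all-E)-RA binding by unlabeled retinoid over a dose series to derive IC50.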

SMILES strings stand for the structures.

By IC50 is commonly meant the concentration at which inhibition is half-maximal. The low end stands for inhibition by little substance, the high end for a need for much substance. Regarding `CCC1=C(C(C)C)/C(=C/C(C)=C\C=C\C(C)=C\C(=O)O)CCC1`, the half-inhibitory concentration (IC50) is over 1000 nM.
